In PubChem BioAssay AID1259399 (Fisher Drug Discovery Resource Center, 2018):
This is a selection; strong and weak results do not stand in their true shares. Active and inactive are the calls of the source. Rule as the data show it: active = inhibition above about 40%; inactive = the rest.

Protein sequences, listed by entry. Tags and fused reporters are not part of them.
UniProt Q8C6L5, whole entry: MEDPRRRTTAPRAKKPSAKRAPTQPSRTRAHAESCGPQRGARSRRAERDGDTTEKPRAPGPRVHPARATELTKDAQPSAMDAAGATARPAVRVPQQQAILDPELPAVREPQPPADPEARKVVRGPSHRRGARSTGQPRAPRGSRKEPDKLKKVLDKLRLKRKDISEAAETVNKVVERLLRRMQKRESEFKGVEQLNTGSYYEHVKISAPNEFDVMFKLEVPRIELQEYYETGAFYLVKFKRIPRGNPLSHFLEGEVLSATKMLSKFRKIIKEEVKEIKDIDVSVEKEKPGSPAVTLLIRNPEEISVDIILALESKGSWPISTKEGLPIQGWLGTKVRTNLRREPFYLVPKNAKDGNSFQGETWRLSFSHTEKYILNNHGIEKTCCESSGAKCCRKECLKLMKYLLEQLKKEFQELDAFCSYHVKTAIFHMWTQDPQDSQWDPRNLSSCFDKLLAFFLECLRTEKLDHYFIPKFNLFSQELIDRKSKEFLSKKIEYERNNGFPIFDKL

The compounds below were run against Cyclic GMP-AMP synthase (Mus musculus) (UniProt Q8C6L5) (assay: inhibition of Mus musculus cGAS, primary biochemical chemiluminescence screen (AID 1259399;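 also: 0% = negative control wells and 100% = reference inhibitor with no enzyme activity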)). Settings: recombinant cGAS, Kinase-Glo ATP depletion luminescence; at 12.5 µM; hits give high values.

Question: For `CP(=O)(Nc1ccc(Br)cc1)Oc1ccccc1` (stereo not drawn), which inhibition is on record?
Answer: inactive: -5.23%

Question: With `CCCCOc1ccc(NP(C)(=O)Oc2ccc(CC)cc2)cc1` (stereo not drawn) as the compound, how does the inhibition read?
Answer: inactive: -6.03%

Question: `CP(=O)(Nc1ccccc1Br)Oc1ccccc1` (stereo not drawn) was tested. Which inhibition did it give?
Answer: inactive: -7.48%

Question: `Nc1nonc1N=Nc1nonc1N` was tested. Which inhibition did it give?
Answer: inactive: 2.08%

Question: `CC(=O)N(CCN(C(C)=O)[N+](=O)[O-])[N+](=O)[O-]` was tested. Which inhibition did it give?
Answer: inactive: -6.18%

Question: For `Cc1ccc(Cl)cc1NP(C)(=O)Oc1ccccc1` (stereo not drawn), which inhibition is on record?
Answer: inactive: -2.25%

Question: With `CN([N+](=O)[O-])C(Br)([N+](=O)[O-])[N+](=O)[O-]` as the compound, how does the inhibition read?
Answer: inactive: -1.59%

Question: `Cc1ccc(NP(C)(=O)Oc2ccc(Cl)cc2)cc1` (stereo not drawn) was tested. Which inhibition did it give?
Answer: inactive: -7.36%

Question: With `CP(=O)(O)OC(c1ccccc1)C(F)(F)C(F)(F)F` (stereo not drawn) as the compound, how does the inhibition read?
Answer: inactive: -8.24%

Question: With `COc1ccc(OP(C)(=O)Nc2ccc(Br)cc2)cc1` (stereo not drawn) as the compound, how does the inhibition read?
Answer: inactive: -6.01%

Question: `CP(=O)(Oc1ccc(F)cc1)OC(c1ccccc1)C(F)(F)F` (stereo not drawn) was tested. Which inhibition did it give?
Answer: inactive: -5.88%

Question: Which inhibition does the source give for `CP(=O)(Nc1cccc(F)c1)Oc1ccc(Cl)cc1` (stereo not drawn) here?
Answer: inactive: -6.26%

Question: For `Cn1cc([N+](=O)[O-])nc1[N+](=O)[O-]`, which inhibition is on record?
Answer: inactive: -4.58%
